Assay: in vitro
Conditions: human, Caco-2

Structure (SMILES) | Papp B→A at 2 h | efflux ratio at 2 h
CC(C)(C)[C@H](c1cc(-c2cc(F)ccc2F)cn1Cc1ccccc1)N(CC[C@H](N)C(=O)NCCNC(=O)CNC(=O)C(CC(=O)O)SC[C@H](N)C(=O)O)C(=O)CO (mixture of isomers) [Example M27, 4-[(2-{[2-({(2S)-2-Amino-4-[{(1R)-1-[1-benzyl-4-(2,5-difluorophenyl)-1H-pyrrol-2-yl]-2,2-dimethylpropyl}(glycoloyl)amino]butanoyl}amino)ethyl]amino}-2-oxoethyl)amino]-3-{[(2R)-2-amino-2-carboxyethyl]sulfanyl}-4-oxobutanoic acid-trifluoroacetic acid (1:1)] | 1.32 ×10⁻⁶ cm/s | 
CC(C)(C)[C@H](c1cc(-c2cc(F)ccc2F)cn1Cc1ccccc1)N(CCCN)C(=O)CO [Example M9, N-(3-Aminopropyl)-N-{(1R)-1-[1-benzyl-4-(2,5-difluorophenyl)-1H-pyrrol-2-yl]-2,2-dimethylpropyl}-2-hydroxyacetamide] | 21.3 ×10⁻⁶ cm/s | 
CC(C)(C)[C@H](c1cc(-c2cc(F)ccc2F)cn1Cc1ccccc1)N(CCCN)C(=O)CSC[C@H](N)C(=O)O.O=C(O)C(F)(F)F.O=C(O)C(F)(F)F [Example M11, S-{2-[(3-Aminopropyl){(1R)-1-[1-benzyl-4-(2,5-difluorophenyl)-1H-pyrrol-2-yl]-2,2-dimethyl-propyl}amino]-2-oxoethyl}-L-cysteine/trifluoroacetic acid (1:2)] | 2.43 ×10⁻⁶ cm/s | 27.7
